Assay results as given in patent US5196094A, “Separation of 1,1,1-trichloroethane from the lower alcohols by extractive distillation” (priority 1991, dated 1993).

Experiments:
Type in all cases: physicochemical
[1] = Vapor-liquid equilibrium still, separation of 1,1,1-trichloroethane from n-propanol
[2] = Vapor-liquid equilibrium still, separation of 1,1,1-trichloroethane from 2-butanol
[3] = Vapor-liquid equilibrium still, separation of 1,1,1-trichloroethane from t-butanol
[4] = Vapor-liquid equilibrium still, separation of 1,1,1-trichloroethane from methanol
[5] = 1,1,1-trichloroethane from 2-butanol, vapor-liquid equilibrium still

## Dipropylene glycol methyl ether
[1]
  Relative Volatility: 2.5
[2]; [5]
  Relative Volatility: 2.3
[3]
  Relative Volatility: 1.5

## Dipropylene glycol methyl ether acetate
[4]
  Relative Volatility: 2.2 and 3.6
[1]
  Relative Volatility: 1.7
[2]
  Relative Volatility: 1.8

## Tripropylene glycol methyl ether
[1]
  Relative Volatility: 2.2
[2]; [5]
  Relative Volatility: 2.3
[3]
  Relative Volatility: 1.4

Values joined by “and” are separate entries in the source; they are usually repeats but may differ in a detail not shown here. Equal values may be shown once.
